In article PMC1500811, “Neofunctionalization in Vertebrates: The Example of Retinoic Acid Receptors” (PLoS Genetics, 2006) one finds EC50 data, which are given here for 1 compound.

The chains behind the UniProt entries cited, without tags or fusion partners. Residues count along the entry.
UniProt P18911, 156-458 limits assumed: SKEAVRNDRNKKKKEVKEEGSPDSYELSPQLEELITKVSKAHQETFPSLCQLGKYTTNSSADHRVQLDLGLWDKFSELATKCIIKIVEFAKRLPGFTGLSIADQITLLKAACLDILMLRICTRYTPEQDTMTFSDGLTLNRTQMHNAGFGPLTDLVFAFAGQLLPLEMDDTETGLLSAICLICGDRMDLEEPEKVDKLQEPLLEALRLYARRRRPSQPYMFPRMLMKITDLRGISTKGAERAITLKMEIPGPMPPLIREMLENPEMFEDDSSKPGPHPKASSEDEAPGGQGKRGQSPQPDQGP
UniProt P11416, 155-462 limits assumed: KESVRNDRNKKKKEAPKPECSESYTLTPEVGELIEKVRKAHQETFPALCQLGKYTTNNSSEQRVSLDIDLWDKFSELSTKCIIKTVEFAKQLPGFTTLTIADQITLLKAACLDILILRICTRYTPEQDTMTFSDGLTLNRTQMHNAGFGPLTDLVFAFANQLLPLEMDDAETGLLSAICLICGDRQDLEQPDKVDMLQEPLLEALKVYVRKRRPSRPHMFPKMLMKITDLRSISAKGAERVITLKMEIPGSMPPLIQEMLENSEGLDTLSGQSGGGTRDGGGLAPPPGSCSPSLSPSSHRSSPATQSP

The target in assay [1] is T1, mRARγ (Mus musculus, UniProt P18911).
T1 construct: gene Rarg; LBD fused to Gal4 residues 1-147; in vitro translated for proteolysis
In words: Gal4-RAR(LBD) luciferase transactivation in Cos-1 cells. The following applies: agonist; one collective range given for all chordate RARs. Format: cell-based.

Assay [2] concerns the target T2, mRARα (Mus musculus, UniProt P11416).
T2 construct: gene Rara; LBD fused to Gal4 residues 1-147; in vitro translated for proteolysis
The description is as above. Particulars: agonist; one collective range given for all chordate RARs. Format: cell-based.

Turning to `CC1=C(/C=C/C(C)=C/C=C/C(C)=C/C(=O)O)C(C)(C)CCC1` [ATRA], the EC50 in assay [1] and in assay [2] was ~ 10^−9 to 10^−8 M each time.
